Test results: PMC9127750, “Structure-based design of CDC42 effector interaction inhibitors for the treatment of cancer” (Cell reports, 2022)

Tests used:
[1] = In vitro microsomal stability assay; assay type: in vitro ADME; conditions: pH 7.4; rat liver microsomes; read-out: half-life after incubation with rat microsomes
Method: 10 mM DMSO stock solution of each compound was pre-incubated at 37°C for 15 min with liver microsomes from all the three species (mouse, rat, human) in 0.1M Tris-HCl buffer (pH 7.4). The final concentration was 4.6 μM. After pre-incubation, the co-factors (NADPH, G6P, G6PDH and MgCl2 pre-dissolved in 0.1M Tris-HCl) were added to the mixture and the incubation was continued at 37°C for 1 h. […] The supernatant was then further diluted with H2O (1:1) for analysis. […] The percentage of test compound remaining at each time point relative to the amount observed at t = 0 was calculated. The half-lives (t½) were determined by a one-phase decay equation using a non-linear regression of compound concentration versus time.

U118MG = experiment: cells; conditions: Homo sapiens, U-118-MG, read-out: IC50 ARN22089

Compound: CN(C)c1cccc(Nc2cc(-c3ccccc3)nc(C3CCNCC3)n2)c1 [ARN22089, N1,N1-dimethyl-N3-(6-phenyl-2-(piperidin-4-yl)pyrimidin-4-yl)benzene-1,3-diamine]
- half-life at […] [1]: 1.78 h
- IC50 (U118MG): 8.8 µM
